Measurements published in ChEMBL document CHEMBL1124680, “Cyclic enkephalin analogues containing alpha-amino-beta-mercapto-beta,beta-pentamethylenepropionic acid at positions 2 or 5” (J Med Chem, 1989).

Protein sequences, listed by entry. Tags and fused reporters are not part of them.
UniProt P33535, whole entry: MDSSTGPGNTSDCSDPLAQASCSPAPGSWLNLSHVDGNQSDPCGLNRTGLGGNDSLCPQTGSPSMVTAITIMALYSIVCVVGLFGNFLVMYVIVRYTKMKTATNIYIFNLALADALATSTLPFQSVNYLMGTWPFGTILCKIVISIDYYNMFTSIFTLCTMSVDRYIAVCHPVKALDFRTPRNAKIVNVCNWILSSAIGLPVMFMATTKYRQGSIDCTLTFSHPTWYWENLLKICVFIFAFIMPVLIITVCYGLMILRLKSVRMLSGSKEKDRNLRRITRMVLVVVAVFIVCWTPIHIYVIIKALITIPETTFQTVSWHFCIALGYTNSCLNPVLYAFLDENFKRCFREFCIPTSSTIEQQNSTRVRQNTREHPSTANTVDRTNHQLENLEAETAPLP
UniProt P33533, whole entry: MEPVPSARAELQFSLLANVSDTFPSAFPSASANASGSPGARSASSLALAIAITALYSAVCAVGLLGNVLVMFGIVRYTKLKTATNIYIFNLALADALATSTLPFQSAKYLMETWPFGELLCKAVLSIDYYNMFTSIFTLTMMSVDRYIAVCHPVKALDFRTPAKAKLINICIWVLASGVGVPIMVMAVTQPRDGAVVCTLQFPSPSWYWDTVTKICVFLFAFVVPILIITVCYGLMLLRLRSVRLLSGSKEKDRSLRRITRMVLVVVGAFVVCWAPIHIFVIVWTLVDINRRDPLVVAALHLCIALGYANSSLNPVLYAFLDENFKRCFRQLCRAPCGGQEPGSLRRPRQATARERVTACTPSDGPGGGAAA

Legend:
[1] = target: Mu-type opioid receptor (Rattus norvegicus, UniProt P33535); test: The compound was tested for the ability to displace mu-receptor specific radioligand [3H]DAGO
Procedure, shortened: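 μ-selective [³H]DAGO displacement in rat brain membrane preparation, radioligand at 0.72 nM, 2 h incubation at 0 °C.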

[2] = target: T1, Delta-type opioid receptor (Rattus norvegicus, UniProt P33533); test: The compound was tested for the ability to displace opioid receptor delta specific radioligand [3H]-DSLET
[3] = target: T1, Delta-type opioid receptor; test: The compound was tested for the ability to displace opioid receptor delta specific radioligand [3H]DPDPE

N[C@@H](Cc1ccc(O)cc1)C(=O)N[C@@H]1CSSC2(CCCCC2)[C@H](C(=O)O)NC(=O)[C@H](Cc2ccccc2)NC(=O)CNC1=O
Ki [1]: 20.9 nM
Ki [2]: 2.3 nM
Ki [3]: 0.63 nM
